Reference: ChEMBL document CHEMBL1143107 (Bioorg Med Chem, 2008)

Assays:
Homo sapiens [1] = species on record: Homo sapiens; test: Ratio of IC50 for human COX1 to IC50 for human COX2 in human whole blood; format: tissue-based
Homo sapiens [2] = species on record: Homo sapiens; test: Ratio of IC50 for human COX1 to IC50 for human COX2

Row | Ratio IC50 (Homo sapiens [2]) | Structure (SMILES) | Ratio IC50 (Homo sapiens [1])
1 |  | CCN(CC)c1cc(NCc2cccs2)nc(-c2ccc(S(C)(=O)=O)cc2)n1 | > 1640
2 | > 71 | CS(=O)(=O)c1ccc(-c2nc(NCc3ccccc3)cc(C(F)(F)F)n2)cc1 | 1410
3 | > 13 | CC(C)CNc1cc(C(F)(F)F)nc(-c2ccc(S(C)(=O)=O)cc2)n1 | > 127
4 | > 4460 | CS(=O)(=O)c1ccc(-c2nc(NCc3cccs3)cc(C(F)(F)F)n2)cc1 | 10700
5 |  | CS(=O)(=O)c1ccc(-c2nc(NCc3ccc(Cl)s3)cc(C(F)(F)F)n2)cc1 | > 18600
6 |  | COCCOc1cc(NCc2cccs2)nc(-c2ccc(S(C)(=O)=O)cc2)n1 | > 41800
7 |  | CC(C)(C)c1cc(NCc2cccs2)nc(-c2ccc(S(C)(=O)=O)cc2)n1 | > 322
8 |  | CC(C)c1cc(NCc2cccs2)nc(-c2ccc(S(C)(=O)=O)cc2)n1 | > 1020
